{"source": "patent US7135457B1", "about": "“Random peptides that bind to gastro-intestinal tract (GIT) transport receptors and related methods” (Cytogen Corporation, priority 1997, dated 2006)", "data": [{"details": "text summary of hSI, D2H, HPT1, hPEPT1 pools", "method": "(§1) In particular, phages selected in vitro to each receptor or binding site located in the GIT were amplified in E. coli, PEG-precipitated, resuspended in TBS and the titer of each phage sample was determined by plaquing in E. coli as described above. […] Using the in situ loop model described above, 0.5 ml of preselected phage library solution was injected into the tied-off portion of the duodenum/jejunum. Blood was collected into heparinized tubes from the portal vein at 0, 15, 30, 45 and 60 minutes. A blood sample was taken from the systemic circulation at the end of the experiment. Similarly, the portion of the duodenum/jejunum used for phage injection was taken at the end of the experiment.\n(§2) Thirty microliters of the collected portal blood (neat and 10^−2, 10^−4, 10^−6 dilutions) was added to 30 μl E. coli K91Kan cells (overnight culture) and incubated at 37° C. for 10 min. Subsequently, 3 ml of top agarose was added and the samples were plated for plaques. One hundred microliters of the collected portal blood was added to 100 μl of E. coli K91Kan. Five milliliters of LB medium was then added and the samples were incubated at 37° C. overnight in a rotating microbial incubator. The E. coli was removed by centrifugation and the amplified phage supernatant samples were either titered directly or were PEG-precipitated, resuspended in TBS and titered. Following titration of the amplified phage, samples containing phage from each set of animals were combined, adjusting the titer of each sample to the same titer, and were plated for plaques on LB agar plates (22 cm^2 square plates). Either 12,000 or 24,000 phage were plated for plaques.\n(§3) Thirty microliters of the collected systemic blood (neat and 10^−2, 10^−4, 10^−6 dilutions) was added to E. coli K91Kan cells, incubated at 37° C. for 10 min. Three ml of top agarose was then added and the samples were plated for plaques. One hundred microliters of the collected systemic blood was added to 100 μl of E. coli K91Kan, incubated at 37° C. for 10 min. Five milliliters of LB medium was then added and the samples were incubated at 37° C. overnight in a rotating microbial incubator. The E. coli was removed by centrifugation and the amplified phage supernatant samples were either titered directly or were PEG-precipitated, resuspended in TBS and titered. Following titration of the amplified phage, samples containing phage from each set of animals were combined, adjusting the titer of each sample to the same titer, and were plated for plaques on LB agar plates (22 cm^2 square plates). Either 12,000 or 24,000 phage were plated for plaques. The intestinal tissue portion used in each closed loop was excised. […] Alternatively, the tissue (in PBS supplemented with protease inhibitors) was homogenized in an Ultra Thorex homogenizer, washed 3 times in PBS containing protease inhibitors and resuspended in PBS containing protease inhibitors (Int-G samples). In each case, serial dilutions (neat and 10^−2, 10^−4, 10^−6 dilutions) of the tissue homogenate was titered in E. coli.\n(§4) The phage amplified from the portal blood, systemic blood and intestinal tissue was plated for plaques. […] The filters were air-dried, and the DNA was cross-linked to the filter (UV crosslinking: 2 min, high setting). The filters were incubated in pre-hybridization buffer (6×SSC, 5×Denhardt's solution, 0.1% SDS, 20 μg/ml yeast tRNA) at 40° C.-45° C. for at least 60 min.\n(§5) Synthetic oligonucleotides, (22-mers), complimentary to regions coding for the receptor or binding sites used to create the preselected phage library, were synthesized (see Table 14 below).\n(§6) The oligonucleotides (5 pmol) were 5′ end labelled with ^32P-ATP and T4 polynucleotide kinase and approximately 2.5 pmol of labelled oligonucleotide was used in hybridization studies. […] The filters were air-dried and exposed for autoradiography for 15 hours, 24 hours or 72 hours.\n(§7) Hybridization data for pools from each receptor group of rats was compiled.", "values": [{"sequence": "SPKLSSVGVMTKVTELPTEGPNAISIPISATLGPRNPLR [Phage SNiAX8]", "transport from the GIT closed loop into the portal circulation (in words)": "not transported"}, {"sequence": "RGAADQRRGWSENLGLPRVGWDAIAHNSYTFTSRRPRPP [Phage SNi38]", "transport from the GIT closed loop into the portal circulation (in words)": "transported"}, {"sequence": "RTTTAKGCLLGSFGVLSGCSFTPTSPPPHLGYPPHSVN [Phage SNiAX6]", "transport from the GIT closed loop into the portal circulation (in words)": "not transported"}, {"sequence": "SDSDGDHYGLRGGVRCSLRDRGCGLALSTVHAGPPSFYPKLSSP [Phage SNiAX2]", "transport from the GIT closed loop into the portal circulation (in words)": "not transported"}, {"sequence": "SHSGGMNRAYGDVFRELRDRWNATSHHTRPTPQLPRGPN [Phage SNi28]", "transport from the GIT closed loop into the portal circulation (in words)": "not transported"}, {"sequence": "RVGQCTDSDVRRPWARSCAHQGCGAGTRNSHGCITRPLRQASAH [Phage SNi10]", "transport from the GIT closed loop into the portal circulation (in words)": "transported"}, {"sequence": "SPCGGSWGRFMQGGLFGGRTDGCGAHRNRTSASLEPPSSDY [Phage SNi34]", "transport from the GIT closed loop into the portal circulation (in words)": "transported"}, {"sequence": "SGGEVSSWGRVNDLCARVSWTGCGTARSARTDNKGFLPKHSSLR [Phage SNi45]", "transport from the GIT closed loop into the portal circulation (in words)": "not transported"}]}, {"details": "text summary of the four pools", "method": "as §1, §2, §3, §4, §5, §6, §7", "values": [{"sequence": "RVGQCTDSDVRRPWARSCAHQGCGAGTRNSHGCITRPLRQASAH [Phage SNi10]", "presence in the intestine samples or fractions (in words)": "found in the intestine samples or fractions"}]}]}
